Values of other authors as cited in US20130204238A1, “COMBINATION THERAPY” (FOLLICA, INC, priority 2010, published 2013).

The chains behind the UniProt entries cited, without tags or fusion partners.
UniProt P49841, whole entry, species assumed: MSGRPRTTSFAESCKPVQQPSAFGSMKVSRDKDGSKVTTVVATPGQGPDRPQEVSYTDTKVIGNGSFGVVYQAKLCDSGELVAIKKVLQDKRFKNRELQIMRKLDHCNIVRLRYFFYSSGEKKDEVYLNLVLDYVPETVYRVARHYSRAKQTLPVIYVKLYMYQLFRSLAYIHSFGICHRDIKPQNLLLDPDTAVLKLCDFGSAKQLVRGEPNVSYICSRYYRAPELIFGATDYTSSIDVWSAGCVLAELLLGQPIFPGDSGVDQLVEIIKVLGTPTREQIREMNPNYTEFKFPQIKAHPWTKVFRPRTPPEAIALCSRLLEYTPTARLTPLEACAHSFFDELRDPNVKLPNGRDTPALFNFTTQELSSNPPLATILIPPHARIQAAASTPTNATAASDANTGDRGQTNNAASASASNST

Target: GSK3β (Homo sapiens, UniProt P49841)
Settings: compared with other indirubin derivatives

indirubin 3′-monoxime
toxicity: reduced toxicity
